AlphaSeq binding of Ab-14 light chain variants to a spike HR2 peptide

Target: peptide PDVDLGDISGINAS, taken from heptad repeat 2 (HR2) of SARS-CoV-2 spike.

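Phage display of a naive human antibody library on the peptide gave the parent. This is the validation round: designs drawn from the data on random variants, tested in the same kind of assay. Their group label is 14L_GP_Gibbs (GP: Gaussian process model; Gibbs: Gibbs sampling; a sequence that several methods proposed may carry one label only). Affinity was read by AlphaSeq, a pooled yeast mating assay with surface-displayed partners. The frequency of each diploid, read from paired DNA barcodes, reflects how well the two displayed proteins bind. Each replicate has its own calibration line, from reference interactions of the BCL2 family. Mating was done six times.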

Ab-14 is the parent antibody, in scFv form: VH, then a (GGGGS)3 linker, then VL. The heavy chain is unchanged in all variants.
VH: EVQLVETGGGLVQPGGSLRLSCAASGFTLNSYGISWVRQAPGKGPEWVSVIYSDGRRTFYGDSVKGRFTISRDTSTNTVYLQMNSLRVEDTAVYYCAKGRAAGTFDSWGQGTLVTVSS
VL: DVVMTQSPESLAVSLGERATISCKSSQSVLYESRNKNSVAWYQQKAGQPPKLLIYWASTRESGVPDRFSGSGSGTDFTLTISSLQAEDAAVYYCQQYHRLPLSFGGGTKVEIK

Variants are written as CDR1, CDR2 and CDR3 of the light chain (limits as in the source). Parent: KSSQSVLYESRNKNSVA, WASTRES, QQYHRLPLS. Numbers give log10(Kd / nM), so 0 is 1 nM and 3 is 1 µM. Smaller is tighter. Replicates are averaged; those with no signal do not enter the mean. The authors' rule: three or more of the six replicates give a measured affinity, fewer mean a poor binder. Three control strains display no target. For all light chain designs, 4% of the pairings with them gave a signal, with a median of 2.64 and one signal in twenty below 1.59, so weak values seen in few replicates may be background. The control count says in how many pairings with the empty strains this scFv gave a signal, with their mean in brackets. Values of this round are not directly comparable with the first-round values of the same sequences.

CDR-L1	CDR-L2	CDR-L3	replicates, log10 nM	mean, log10 nM	control signals
KLDISELYESRNWNSVA	NASQREE	QQYHRLPLS	-0.06 -0.10 -0.18 -0.37 -0.13 0.18	-0.11	1/18 (2.41)
HVSQSKLQGQRNKNSVA	EASTRER	QQYHRLPLS	0.20 0.72 0.80 0.28 1.29 0.73	0.67	0/18
KSSQSGEMLSRNKNNVA	DASQRES	QQYHRLPLS	0.25 -0.10 -0.07 -0.23 -0.01 0.09	-0.01	0/18
FISQSVEYESRDKNSVA	NASTRLS	QQYHRLPLS	0.24 0.02 -0.14 -0.13 -0.10 0.20	0.02	2/18 (3.43)
KVSQLDLGGSRNKNSVA	HAHTRES	QQYHRLPLS	1.26 0.98 1.37 1.43 0.93 1.26	1.21	5/18 (2.97)
KNDISHLGESRNKNAVA	QASTREE	QQYHRLPLS	0.01 0.10 -0.13 -0.14 -0.09 0.06	-0.03	0/18
KLSPSWWYESRNKANVA	HASTRES	QQYHRLPLS	0.09 0.30 0.04 0.06 -0.10 0.25	0.11	1/18 (1.84)
KVDQSVLYESRNKNAVA	QGSTRES	QQYHRLPLH	0.06 -0.18 -0.10 -0.24 -0.08 0.00	-0.09	0/18
KLSQSNKYESRMKNSVA	NASQREL	QQYHRLPLS	0.50 0.09 0.17 0.30 0.06 0.22	0.22	4/18 (2.82)
KWQWSWLYSSRNKNSVA	EGSTRES	QQYHRLPLS	1.03 0.92 1.17 1.48 0.43 1.26	1.05	1/18 (1.66)
KSDQSELEESRNDNSVA	SANHRLS	QQYHRLPLS	-0.04 0.18 0.14 0.21 -0.01 0.25	0.12	0/18
KIPQSWLGEWRNKNSVA	NASQRES	QQYHRLPLS	-0.01 -0.17 -0.18 -0.30 -0.22 0.16	-0.12	1/18 (2.95)
KLEFSVDYEDRNKNAVA	QASTREK	QQYHRLPLS	0.13 0.14 -0.29 0.19 0.23 0.22	0.10	0/18
KVSQQYLYGDRNANSVA	NASTRED	QQYHRLPLS	0.13 0.10 0.13 0.36 0.17 0.36	0.21	3/18 (2.54)
KFSQSDLYEDRAKNSVA	NASTRCS	QQYHRLPLS	0.55 0.29 0.24 0.27 0.22 0.27	0.31	1/18 (2.50)
KIQQSVLMESLNKNSVA	EASTRLD	QQYHRLPLS	0.23 0.64 -0.14 0.48 0.20 0.69	0.35	1/18 (2.50)
YLSQSVQYESRNKNSVA	SASTREY	QQYHRLPLM	0.22 0.33 0.22 0.26 0.20 0.23	0.24	0/18
KIQQSVLYEDRQKNSVA	NASDRMS	QQYHRLPLS	0.45 0.48 0.36 0.45 0.33 0.37	0.41	1/18 (3.03)
KVSQSHLYEERNKNNVA	QASDRES	QQYHRLPLS	0.04 -0.14 -0.05 -0.35 -0.29 -0.17	-0.16	1/18 (1.46)
KLEQGVDMESRNKNSVA	HASMRES	QQYHRLPLS	0.19 0.14 0.00 -0.01 0.01 0.05	0.06	4/18 (3.26)
KWSQLVGEESRNKSSVA	NASTREE	QQYHRLPLS	1.54 1.21 0.59 1.06 2.87 0.99	1.38	0/18
KSAYSELGESRNKNSVA	SASTRES	QQYHRLPLS	0.90 0.52 0.23 0.72 0.47 0.86	0.62	0/18
KLPQSEPYEERCFNSVA	NASTRCS	QQYHRLPLS	0.39 0.29 0.08 -0.12 0.34 0.19	0.19	0/18
KIDQWKLGESVNKNSVA	DASTRMD	QQYHRLPLS	-0.20 -0.24 -0.46 -0.60 -0.40 -0.52	-0.40	0/18
KLSKMVMEGSRNKNSVA	SASQREE	QQYHRLPLS	0.20 0.12 -0.02 0.04 0.11 0.11	0.09	4/18 (2.78)
KLMGSMQYESRNKNAVA	EASTRES	QQYHRLPLS	-0.16 -0.35 -0.16 -0.44 -0.23 -0.10	-0.24	0/18
KCEQWQDYESRNKNSVA	QASTREQ	QQYHRLPLS	2.54 1.22 1.40 0.92 1.70 1.41	1.53	0/18
KSSQSDLYESRNGNSVA	NGSTRED	QQYHRLPLS	0.23 0.46 0.26 0.11 0.28 0.03	0.23	1/18 (2.65)
KLMQSTLYESRNANNVA	YASTREE	QQYHRLPLS	0.16 0.04 -0.08 0.08 0.32 0.48	0.17	0/18
KLSQSVLYEMRVKNSVA	QAVTRMS	QQYHRLPLS	0.72 0.55 0.14 0.35 0.34 0.41	0.42	0/18
KFQQMVMMGDRNKNSVA	WASTRLQ	QQYHRLPLS	1.68 2.72 1.52 1.69 2.01 1.53	1.86	3/18 (2.73)
KSQIGQWYEDRNKNSVA	SASTREE	QQYHRLPLS	-0.06 -0.09 -0.25 -0.35 -0.32 -0.20	-0.21	1/18 (4.91)
KLQFSEEYESRNKNSVA	SAHQRES	QQYHRLPLS	-0.33 -0.36 -0.21 -0.45 -0.29 -0.18	-0.30	2/18 (2.49)

2 of these entries, quoted again:

{"CDR-L1": "KFSQSDLYEDRAKNSVA", "CDR-L2": "NASTRCS", "CDR-L3": "QQYHRLPLS", "replicates, log10 nM": "0.55 0.29 0.24 0.27 0.22 0.27", "mean, log10 nM": "0.31", "control signals": "1/18 (2.50)"}
{"CDR-L1": "HVSQSKLQGQRNKNSVA", "CDR-L2": "EASTRER", "CDR-L3": "QQYHRLPLS", "replicates, log10 nM": "0.20 0.72 0.80 0.28 1.29 0.73", "mean, log10 nM": "0.67", "control signals": "0/18"}

From the AlphaSeq antibody data of Li et al. 2023 (doi:10.1038/s41467-023-39022-2), copy in the FLAb collection.